Experimental data: US10383835B2, “Treatment of inflammatory disorders in non-human mammals” (The Regents of the University of California, priority 2012, dated 2019)

Sequences of proteins named here, by UniProt entry; tags and fusion partners are left off. Residues count along the entry.
UniProt Q6Q2C2, whole entry: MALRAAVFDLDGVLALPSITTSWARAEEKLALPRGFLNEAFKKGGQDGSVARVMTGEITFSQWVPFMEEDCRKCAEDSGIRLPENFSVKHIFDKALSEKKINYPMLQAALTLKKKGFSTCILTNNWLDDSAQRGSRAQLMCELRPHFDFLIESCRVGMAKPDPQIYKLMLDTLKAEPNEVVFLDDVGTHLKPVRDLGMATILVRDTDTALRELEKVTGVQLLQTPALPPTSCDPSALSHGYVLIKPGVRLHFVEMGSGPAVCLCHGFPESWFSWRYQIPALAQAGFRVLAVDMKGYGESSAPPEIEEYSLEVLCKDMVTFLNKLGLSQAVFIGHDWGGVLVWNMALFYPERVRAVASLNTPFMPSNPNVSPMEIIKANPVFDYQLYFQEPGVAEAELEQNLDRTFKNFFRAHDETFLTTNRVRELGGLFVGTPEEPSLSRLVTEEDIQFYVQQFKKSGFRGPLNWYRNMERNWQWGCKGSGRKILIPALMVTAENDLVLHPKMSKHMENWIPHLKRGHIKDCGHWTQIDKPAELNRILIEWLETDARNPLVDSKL
UniProt A0A8I3NJL8, 1-556: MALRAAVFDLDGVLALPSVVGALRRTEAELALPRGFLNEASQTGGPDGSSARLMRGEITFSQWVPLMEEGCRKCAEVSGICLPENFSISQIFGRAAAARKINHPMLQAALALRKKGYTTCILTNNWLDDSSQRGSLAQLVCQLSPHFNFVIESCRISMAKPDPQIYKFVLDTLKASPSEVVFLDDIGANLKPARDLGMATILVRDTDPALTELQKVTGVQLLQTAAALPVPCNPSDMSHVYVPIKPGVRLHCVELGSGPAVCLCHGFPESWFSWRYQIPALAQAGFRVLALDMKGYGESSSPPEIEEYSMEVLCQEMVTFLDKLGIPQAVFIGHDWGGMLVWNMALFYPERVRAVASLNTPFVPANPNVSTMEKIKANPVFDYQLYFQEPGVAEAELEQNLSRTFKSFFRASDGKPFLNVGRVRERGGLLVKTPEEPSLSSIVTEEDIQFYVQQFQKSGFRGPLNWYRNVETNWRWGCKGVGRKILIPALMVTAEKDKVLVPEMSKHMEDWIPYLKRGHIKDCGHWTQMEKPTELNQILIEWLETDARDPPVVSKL

What was measured:
[1] = target: Pig sEH (Sus scrofa (Pig), UniProt Q6Q2C2); experiment: sEH inhibitor screen of domestic animals; MNPC on recombinant enzyme; format: biochemical
[2] = target: Canine sEH (Canis lupus familiaris, UniProt A0A8I3NJL8); experiment: sEH Inhibitor Screen of Canine sEH; format: biochemical; settings: [I] = 100 nM
[3] = system: horse with pain due to laminitis; experiment: Pain (VAS) and blood pressure in one horse with naturally occurring laminitis, multimodal analgesic therapy; format: in vivo
Description: Soft Ride boots were applied bilaterally.

Row | IC50 [1] | SMILES | inhibition at 0.1 µM [2] | average VAS pain score ([3]; day 8, after first dose of t-TUCB 0.1 mg/kg IV, VAS 0=no pain, 10=worst possible pain, with phenylbutazone and gabapentin) | blood pressure following t-TUCB administration ([3]; hypertensive laminitic horse, t-TUCB 0.1 mg/kg once daily IV) | Pain scores following t-TUCB administration ([3]; t-TUCB 0.1 mg/kg once daily IV, days 8 to 12)
1 | 0.011 µM | O=C(O)CCCCCCCCCCCNC(=O)NC12CC3CC(CC(C3)C1)C2 [compound 700, 12-(3-adamantan-1-yl-ureido) dodecanoic acid] |  |  |  | 
2 |  | O=C(Nc1ccc(OC(F)(F)F)cc1)N[C@H]1CC[C@H](Oc2ccc(C(=O)O)cc2)CC1 [compound 1728] | 92% | 5.5 | progressively decreased to physiologic normal values | decreased sharply and remarkably
